{
  "source": "patent US6468991B1",
  "about": "“Method of treating rhinoviral infections” (Cyclis Pharmaceuticals, Inc., priority 1997, dated 2002)",
  "tested_on": "A-549 (human lung carcinoma) cells",
  "assay": "Cytotoxicity by microscopic morphological changes in uninfected toxicity control wells",
  "data": [
    {"substance": "2′,3′-cyclophosphateadenylyl(2′,5′)adenylyl-(2′,5′)adenosine [Papirine AIII]", "values": [
      {"measurement": "CD50", "setting": "Expt. 1, 5 days' incubation at 37° C., drug changed every 24 hours, A549 cells", "value": ">320", "unit": "µM"},
      {"measurement": "CD50", "setting": "Expt. 1, 5 days' incubation at 37° C., drug present without medium change, A549 cells", "value": ">320", "unit": "µM"},
      {"measurement": "CD50", "setting": "Expt. 2, 3 days' incubation at 37° C., drug changed every 24 hours, A549 cells", "value": ">160", "unit": "µM"},
      {"measurement": "CD50", "setting": "Expt. 2, 3 days' incubation at 37° C., drug present without medium change, A549 cells", "value": ">160", "unit": "µM"},
      {"measurement": "CD50", "setting": "Table 2, second experiment, drug changed every 24 hours", "value": ">160", "unit": "µM"},
      {"measurement": "CD50", "setting": "Table 2, second experiment, drug present without medium change", "value": ">160", "unit": "µM"}
    ]}
  ]
}
